{"sequences": {"note": "The chains behind the UniProt entries cited, without tags or fusion partners. Where a name states a change or a piece, a line headed by the entry shows the natural chain unless it says otherwise. Residues count along the entry.", "UniProt P05181": "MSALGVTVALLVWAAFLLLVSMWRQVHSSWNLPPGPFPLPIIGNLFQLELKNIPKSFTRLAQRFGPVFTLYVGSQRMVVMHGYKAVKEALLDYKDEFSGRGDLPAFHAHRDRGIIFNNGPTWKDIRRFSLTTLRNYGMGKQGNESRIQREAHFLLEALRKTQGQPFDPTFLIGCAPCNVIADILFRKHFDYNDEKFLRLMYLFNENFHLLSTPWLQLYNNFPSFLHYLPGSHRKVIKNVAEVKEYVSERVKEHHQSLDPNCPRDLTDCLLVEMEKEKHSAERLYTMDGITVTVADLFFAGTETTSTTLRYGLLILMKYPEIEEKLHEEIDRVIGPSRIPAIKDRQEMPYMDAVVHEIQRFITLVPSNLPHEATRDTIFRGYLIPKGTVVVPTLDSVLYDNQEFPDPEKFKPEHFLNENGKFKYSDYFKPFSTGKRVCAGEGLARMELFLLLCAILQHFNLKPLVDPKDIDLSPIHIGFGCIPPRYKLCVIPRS", "UniProt P05177, 2-516": "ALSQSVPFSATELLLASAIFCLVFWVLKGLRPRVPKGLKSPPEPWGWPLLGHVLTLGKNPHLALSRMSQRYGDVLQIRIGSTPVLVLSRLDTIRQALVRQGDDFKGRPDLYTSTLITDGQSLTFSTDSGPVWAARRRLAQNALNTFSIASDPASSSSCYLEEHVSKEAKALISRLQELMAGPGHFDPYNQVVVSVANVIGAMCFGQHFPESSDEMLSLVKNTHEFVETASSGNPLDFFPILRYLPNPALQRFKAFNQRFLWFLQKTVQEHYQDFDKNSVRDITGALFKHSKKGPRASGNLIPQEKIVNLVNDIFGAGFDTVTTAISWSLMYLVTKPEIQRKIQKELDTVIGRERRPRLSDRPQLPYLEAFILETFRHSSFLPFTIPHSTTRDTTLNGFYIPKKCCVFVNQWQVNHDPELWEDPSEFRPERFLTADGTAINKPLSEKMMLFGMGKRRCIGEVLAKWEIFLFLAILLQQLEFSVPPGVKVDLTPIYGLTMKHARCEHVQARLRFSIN", "UniProt P11509": "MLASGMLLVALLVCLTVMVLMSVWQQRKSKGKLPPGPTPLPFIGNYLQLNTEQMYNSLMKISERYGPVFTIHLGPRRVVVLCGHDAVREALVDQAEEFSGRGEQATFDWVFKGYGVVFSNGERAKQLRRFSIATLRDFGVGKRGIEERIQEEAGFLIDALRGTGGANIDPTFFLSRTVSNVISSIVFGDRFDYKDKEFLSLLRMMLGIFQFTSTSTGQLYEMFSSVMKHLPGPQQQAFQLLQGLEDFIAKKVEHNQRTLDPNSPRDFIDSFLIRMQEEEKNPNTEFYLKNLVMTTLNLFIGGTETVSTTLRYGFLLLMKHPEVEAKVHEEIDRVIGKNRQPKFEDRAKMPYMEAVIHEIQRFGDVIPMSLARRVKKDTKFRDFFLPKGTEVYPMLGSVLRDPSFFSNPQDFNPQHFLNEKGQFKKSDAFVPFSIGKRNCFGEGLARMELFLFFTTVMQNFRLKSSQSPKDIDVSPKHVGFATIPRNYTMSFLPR", "UniProt P10635, whole entry": "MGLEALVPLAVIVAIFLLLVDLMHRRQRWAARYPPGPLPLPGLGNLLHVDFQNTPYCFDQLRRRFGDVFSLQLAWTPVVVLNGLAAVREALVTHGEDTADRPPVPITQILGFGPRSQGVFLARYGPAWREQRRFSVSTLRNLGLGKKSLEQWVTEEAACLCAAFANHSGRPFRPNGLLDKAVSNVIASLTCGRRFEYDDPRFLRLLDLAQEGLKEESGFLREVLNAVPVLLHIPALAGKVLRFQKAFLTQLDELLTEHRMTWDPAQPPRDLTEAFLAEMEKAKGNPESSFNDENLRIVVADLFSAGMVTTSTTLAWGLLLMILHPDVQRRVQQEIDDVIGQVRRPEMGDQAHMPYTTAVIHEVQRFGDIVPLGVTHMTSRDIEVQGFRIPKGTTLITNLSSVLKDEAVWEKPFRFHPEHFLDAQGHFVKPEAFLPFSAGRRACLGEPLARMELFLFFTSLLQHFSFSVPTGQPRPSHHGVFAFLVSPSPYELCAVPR", "UniProt P10632, whole entry": "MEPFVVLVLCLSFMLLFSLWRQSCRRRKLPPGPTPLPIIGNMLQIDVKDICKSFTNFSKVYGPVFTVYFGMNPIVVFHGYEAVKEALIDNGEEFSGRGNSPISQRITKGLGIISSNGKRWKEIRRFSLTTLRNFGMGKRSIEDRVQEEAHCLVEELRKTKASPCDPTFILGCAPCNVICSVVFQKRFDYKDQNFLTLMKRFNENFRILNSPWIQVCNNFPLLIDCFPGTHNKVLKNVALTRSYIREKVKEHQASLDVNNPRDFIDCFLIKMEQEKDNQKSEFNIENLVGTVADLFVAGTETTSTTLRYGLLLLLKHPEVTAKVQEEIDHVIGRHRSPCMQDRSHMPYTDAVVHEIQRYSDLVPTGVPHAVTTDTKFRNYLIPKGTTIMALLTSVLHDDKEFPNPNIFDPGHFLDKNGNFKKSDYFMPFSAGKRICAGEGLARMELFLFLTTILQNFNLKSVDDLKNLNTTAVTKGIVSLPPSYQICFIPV", "UniProt P20813": "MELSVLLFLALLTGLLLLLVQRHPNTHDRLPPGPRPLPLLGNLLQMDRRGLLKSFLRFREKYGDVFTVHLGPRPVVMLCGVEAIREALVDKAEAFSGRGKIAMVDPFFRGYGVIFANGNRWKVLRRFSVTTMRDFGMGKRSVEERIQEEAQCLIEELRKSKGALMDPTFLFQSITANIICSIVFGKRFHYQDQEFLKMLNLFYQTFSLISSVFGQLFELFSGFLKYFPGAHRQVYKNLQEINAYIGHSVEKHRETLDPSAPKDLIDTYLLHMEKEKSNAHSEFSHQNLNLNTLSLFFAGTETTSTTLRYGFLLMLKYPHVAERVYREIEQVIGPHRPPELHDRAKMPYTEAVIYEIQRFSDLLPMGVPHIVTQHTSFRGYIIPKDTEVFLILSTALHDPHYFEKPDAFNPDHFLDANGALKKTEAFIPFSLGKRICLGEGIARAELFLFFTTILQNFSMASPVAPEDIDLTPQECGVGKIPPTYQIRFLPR"}, "source": "paper PMC4937660", "about": "“In vitro evaluation of the effects of 4-aminopyridine on cytochrome P450 enzymes” (Journal of Drug Assessment, 2013)", "key": {"CYP2E1 [1]": {"target": "T1, CYP2E1 (Homo sapiens, UniProt P05181)", "assay": "chlorzoxazone 6-hydroxylation in human liver microsomes, HPLC-MS/MS"}, "CYP1A2": {"target": "CYP1A2 (Homo sapiens, UniProt P05177)", "details": "read-out: Direct inhibition, 0-min Pre-incubation / IC50, no pre-incubation, phenacetin 40 μM (about Km), NADPH-generating system, pH 7.4, 37 °C"}, "CYP2E1 [2]": {"target": "T1, CYP2E1", "assay": "chlorzoxazone 6-hydroxylation in human liver microsomes, HPLC-MS/MS", "remark": "listed apart in the source"}, "CYP2A6": {"target": "CYP2A6 (Homo sapiens, UniProt P11509)", "details": "read-out: Direct inhibition, 0-min Pre-incubation / IC50, no pre-incubation, coumarin 0.75 μM (about Km), NADPH-generating system, pH 7.4, 37 °C"}, "CYP2D6": {"target": "CYP2D6 (Homo sapiens, UniProt P10635)", "details": "read-out: Direct inhibition, 0-min Pre-incubation / IC50, no pre-incubation, dextromethorphan 7.5 μM (about Km), NADPH-generating system, pH 7.4, 37 °C"}, "CYP2C8": {"target": "CYP2C8 (Homo sapiens, UniProt P10632)", "details": "read-out: Direct inhibition, 0-min Pre-incubation / IC50, no pre-incubation, amodiaquine 7.0 μM (about Km), NADPH-generating system, pH 7.4, 37 °C"}, "CYP2B6": {"target": "CYP2B6 (Homo sapiens, UniProt P20813)", "details": "read-out: Direct inhibition, 0-min Pre-incubation / IC50, no pre-incubation, bupropion 50 μM (about Km), NADPH-generating system, pH 7.4, 37 °C"}}}
{"smiles": "Nc1ccncc1", "note": "[4-AP]", "values": [{"measurement": "Ki", "setting": "CYP2E1 [1]", "result": "~62.5", "unit": "µM"}, {"measurement": "IC50", "setting": "CYP1A2", "result": "> 30", "unit": "µM"}, {"measurement": "IC50", "setting": "CYP2E1 [2]", "result": "~125", "unit": "µM"}, {"measurement": "IC50", "setting": "CYP2A6", "result": "> 30", "unit": "µM"}, {"measurement": "IC50", "setting": "CYP2D6", "result": "> 30", "unit": "µM"}, {"measurement": "IC50", "setting": "CYP2C8", "result": "> 30", "unit": "µM"}, {"measurement": "IC50", "setting": "CYP2B6", "result": "> 30", "unit": "µM"}]}
